Screening data (PubChem BioAssay)
Only some compounds are listed: those with a hit (about 1% of all), similar ones and a draw of the others.
RXFP1 antag: blocks the human relaxin receptor RXFP1; Q9HBX9; HEK293-RXFP1, relaxin-stimulated cAMP HTRF, 30 min; stronger effect = lower value; activity change, negative = inhibition, % at 57.5 µM; 350,000 compounds, 0.59% hits;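 active = activity change of -60% or lower, but not beyond a set lower limit; inconclusive = change between -60% and -40%, or beyond the set limit; inactive = change above -40%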
miR-21 FLuc: raises the signal of a miR-21 reporter | AID 2288 | 340,000 tested, under 10 active | Potency, µM (series often up to 38.3 µM) | HeLa miR-21 FLuc reporter, luciferase, 48 h; active = well fitted rising curve with a large enough effect; inconclusive = small, poorly fitted or top-dose-only effect; inactive = no such curve, though single readings can be large or run the other way;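 further: miR-21 action dims this reporter so a rising signal means less miR-21 action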
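HeLa miR-21-FLuc reporter line, endogenous miR-21; 2000 cells/well in DMEM/10% FBS; compound titration up to ~40uM final, 48 h, 37 degree Celsius; luciferase detection reagent, 15 min lysis, CCD luminescence.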
gsp agonist: activates gsp, the McCune-Albright syndrome mutation; 340,000 compounds, 0.13% hits; gsp mutant cells, cAMP HTRF, 30 min; AID 624287; Potency, µM (top dose mostly 76.9 µM), actives largely listed as activators; active = well fitted activation curve with a large enough effect; inconclusive = small, poorly fitted or top-dose-only effect, or another doubt; inactive = no such curve, though single readings can be large or run the other way; cell line not stated here;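 note: phosphodiesterase inhibitor Ro 20-1724 added with compounds to block cAMP breakdown; nearly all actives have a fitted effect of over 60% in size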
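Cells stably selected in G418 were plated at 2000/well, grown 16-24 hr, then given compounds in DMSO with the PDE inhibitor […] (300 uM solution added) for 30 min at 37C; cAMP was read by HTRF.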
RXFP1 agonist: RXFP1 (human) receptor agonism; Potency, µM (doses to about 57.5 µM), hits mostly activators; Q9HBX9; HEK293T-RXFP1 cAMP TR-FRET, 30 min; response scale: percent of porcine relaxin response, buffer zero; 370,000 compounds, 0.3% hits; note: nearly all actives have a fitted effect of over 60% in size
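cAMP rise read by TR-FRET after 30 min, 37C compound exposure (up to 58 uM) in RXFP1-transfected HEK293 cells with Ro 20174 present. EC50 from Hill-equation fits, with 29 nM porcine relaxin as 100% and buffer as basal.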
Luc counter: Kinase-Glo luciferase inhibition (counter-screen) | Kinase-Glo luciferase, ATP luminescence, 8 min | 200,000 compounds, 0.28% hits | Potency, µM (series often up to 38.3 µM), usual class: inhibitors; note: nearly all actives have a fitted effect of over 60% in size
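Luminescence was the read-out, taken after 8-minute incubation at ambient temperature. Luciferase turned over luciferin with 10 uM ATP in imidazole pH 7.2 buffer containing KCl, MgCl2, Tween 20 and BSA.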
gsp antagonist: gsp mutant antagonism; AID 624288; Potency, µM (top dose mostly 76.9 µM), most hits filed as inhibitors; gsp-mutant cells, cAMP HTRF, 30 min; 340,000 compounds, 0.4% hits; calls by dose curve; cell line not stated here;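 note: intracellular cAMP measured with PDE inhibitor Ro 20-1724 present during compound exposure; nearly all actives have a fitted effect of over 65% in size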
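Cells in G418 medium, seeded 16-24 h, 37C; buffer exchange to DPBS + 1 mM CaCl2, 0.5 mM MgCl2, 0.05% BSA; cpds in DMSO + […] (300 uM stock), 30 min 37C; HTRF cAMP detection.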
Each line names hits and unclear results; the compound was inactive in the other large screens. Unless noted, calls come from the whole dose curve; as a rule, active = well fitted curve in the direction sought with a large enough effect; inconclusive = small, poorly fitted or top-dose-only effect, or another doubt; inactive = no such curve, though single readings can be large; an effect the other way counts as inactive or inconclusive.

COC(=O)c1cccc(NC(=O)c2ccc3c(c2)C(=O)N(Cc2cccnc2)C3=O)c1	gsp antagonist inconclusive (no result: Luc counter)
CC(C)CCN1C(=O)c2ccc(C(=O)Nc3cc(C(=O)O)cc(C(=O)O)c3)cc2C1=O	none (no result: Luc counter)
COC(=O)c1ccc(NC(=O)c2ccc3c(c2)C(=O)N(Cc2cccnc2)C3=O)cc1	gsp antagonist 40µM (no result: Luc counter)
CC(C)CN1C(=O)c2ccc(C(=O)Nc3ccccn3)cc2C1=O	none
CC(C)CN1C(=O)c2ccc(C(=O)Nc3ccncc3)cc2C1=O	gsp antagonist 28µM
CC(C)CCN1C(=O)c2ccc(C(=O)Nc3ccc(Br)cc3C(=O)O)cc2C1=O	gsp antagonist 35µM (no result: Luc counter)
Cc1nn(C(C)C(=O)NC2CCCCC2)c(=O)c2c1sc1ccccc12 (stereo not drawn)	none (no result: gsp agonist, Luc counter, gsp antagonist)
CC(C)C(=O)N(c1cc2sc(=O)oc2c2ccccc12)S(=O)(=O)c1cccs1	RXFP1 antag -68
CC(C)C(=O)N(c1ccc2oc(=O)sc2c1)S(=O)(=O)c1cccs1	none
Cc1ccc(Cn2c(=O)n(Cc3ccccc3Cl)c(=O)c3ccccc32)cc1	none (no result: gsp agonist, Luc counter, gsp antagonist)
CCCSc1nnc(NC(=O)CSc2sc3c(O)cc(=O)[nH]c3c2C#N)s1	none (no result: Luc counter)
N#Cc1c(SCC(=O)Nc2nccs2)sc2c(O)cc(=O)[nH]c12	RXFP1 antag -87 (no result: Luc counter)
Cc1nnc2ccc(-c3cccc(NC(=O)c4ccc(Br)o4)c3)nn12	RXFP1 antag -75, gsp agonist inconclusive
CCOC(=O)N1CCN(C(=O)CSCC(=O)Nc2nc(-c3ccc4c(c3)OCO4)cs2)CC1	gsp antagonist 35µM (no result: Luc counter)
CCOC(=O)N1CCN(C(=O)CSCC(=O)Nc2nc(-c3ccc(C)cc3)cs2)CC1	gsp antagonist 32µM
CN1C(=O)/C(=C/c2ccccc2F)Sc2ccc(C(=O)NCC3CCCO3)cc21 (stereo not drawn)	gsp agonist inconclusive, gsp antagonist 32µM (no result: Luc counter)
C[C@]12CC[C@H](O)CC1=CC[C@H]1[C@@H]2CC[C@@]2(C)C(N(CCO)CCO)CC[C@@H]12 (stereo partly drawn)	none (no result: RXFP1 antag, miR-21 FLuc, gsp agonist, RXFP1 agonist, gsp antagonist)
Cc1ccc2cc(CCNC(=O)c3cc4ccccc4o3)c(=O)[nH]c2c1C	gsp antagonist 35µM (no result: RXFP1 antag)
COc1ccc(-c2csc(N3CCN(C(=O)c4ccco4)CC3)n2)cc1	gsp antagonist 50µM
CCOC(=O)N1CCN(c2nc(-c3ccc(F)cc3)cs2)CC1	gsp antagonist 32µM
COc1ccc(-c2csc(N3CCN(C(=O)c4ccccc4)CC3)n2)cc1	gsp antagonist 35µM
CCOC(=O)C(=O)N1CCN(c2nc(-c3ccc(Cl)cc3)cs2)CC1	none (no result: Luc counter)
Brc1ccc(-c2csc(N3CCCCC3)n2)cc1	none (no result: RXFP1 antag, miR-21 FLuc, gsp agonist, Luc counter, gsp antagonist)
COc1cc(/C=C(/C#N)c2ccc(F)cc2)ccc1OCc1ccc(C(=O)O)o1	gsp antagonist 40µM
COc1cc(NC(=O)c2ccccc2[N+](=O)[O-])ccc1NC(=O)c1cc2ccccc2o1	gsp antagonist 22µM (no result: miR-21 FLuc, RXFP1 agonist, Luc counter)
CCOc1ccc(N2CC(NC(=O)C3CCCCC3)CC2=O)cc1 (stereo not drawn)	none (no result: gsp agonist, Luc counter, gsp antagonist)
COc1ccc2[nH]c3c(=S)nc[nH]c3c2c1	RXFP1 agonist 16µM
COc1ccc2[nH]c3c(Cl)ncnc3c2c1	none (no result: Luc counter)
Cn1c(-c2cccc(Br)c2)cnc1NCc1cccc(F)c1	miR-21 FLuc inconclusive (no result: RXFP1 antag, gsp agonist, Luc counter, gsp antagonist)
CC(C(=O)N1CCN(c2ccc(Cl)cc2)CC1)c1ncc(C(F)(F)F)cc1Cl (stereo not drawn)	gsp antagonist 35µM
O=c1[nH]c(=O)n([C@H]2O[C@H](CO)[C@@H](O)[C@@H]2O)cc1/C=C\Br	none (no result: miR-21 FLuc, gsp agonist, RXFP1 agonist, Luc counter, gsp antagonist)
Cc1ccc(C2=NC(=O)/C(=C/c3cc(O)c(O)c(Br)c3)S2)cc1	Luc counter 10µM
COc1ccc(S(=O)(=O)c2cn(Cc3ccccc3)c3cc(N4CCCC4)c(F)cc3c2=O)cc1	none (no result: gsp agonist, Luc counter, gsp antagonist)
O=C1CCC(C(=O)N2CCCC(N3CCN(c4cccc(C(F)(F)F)c4)CC3)C2)=NN1 (stereo not drawn)	gsp agonist 4.5µM (no result: Luc counter)
Cc1cc(C)c(C(=O)N2CCCC(N3CCN(c4cccc(C(F)(F)F)c4)CC3)C2)o1 (stereo not drawn)	gsp agonist inconclusive, gsp antagonist 50µM (no result: Luc counter)
COc1ccccc1Cn1cc(C(=O)c2ccc(F)cc2)c(=O)c2cc3c(cc21)OCO3	none (no result: gsp agonist, Luc counter, gsp antagonist)
COc1ccc(-c2n(CC(=O)OC3CC(C)CCC3C(C)C)c3ccccc3[n+]2C)cc1 (stereo not drawn)	RXFP1 antag inconclusive, Luc counter 3.5µM
COc1ccc(OCc2n(CC(=O)OC3CC(C)CCC3C(C)C)c3ccccc3[n+]2C)cc1 (stereo not drawn)	RXFP1 antag inconclusive, miR-21 FLuc inconclusive (no result: Luc counter)
Cc1ccc2nc3c(cc2c1)c(NC(=O)c1ccccn1)nn3CC(C)C	none
CCn1nc(NC(=O)c2ccccn2)c2cc3cc(C)ccc3nc21	gsp agonist inconclusive, gsp antagonist 35µM
COCCNC(=O)CSc1nc(-c2ccc(F)cc2)[nH]c1-c1ccc(Cl)cc1	none (no result: gsp agonist, Luc counter, gsp antagonist)
COc1cccc(NC(=O)Cc2ccccc2)c1	none (no result: RXFP1 antag, gsp agonist)
O=C(Cc1ccccc1)Nc1cccc(N2C(=O)C=CC2=O)c1	RXFP1 antag -119, miR-21 FLuc inconclusive
CCc1n[n+](CC(=O)c2ccccc2)c(N)s1	Luc counter 10µM (no result: gsp antagonist)
COCCNC(=S)N(CCCN(C)C)Cc1cc2cc3c(cc2[nH]c1=O)OCCO3	gsp agonist inconclusive, gsp antagonist 50µM (no result: Luc counter)
Nc1nc2ccccc2n1C(=O)c1ccccc1	Luc counter 11µM
Nc1nc2ccccc2n1C(=O)c1ccc(F)cc1	Luc counter inconclusive
O=[N+]([O-])c1cccc(/C=N/Nc2ccccn2)c1	gsp agonist inconclusive
O=[N+]([O-])c1cccc(/C=N/Nc2nccnc2Cl)c1	Luc counter 10µM
Oc1ccc(/C=N/Nc2nccnc2Cl)cc1	Luc counter 3.5µM
CCOC(=O)O[C@]1(C(=O)COC(=O)CC)CC[C@@H]2[C@@H]3CCC4=CC(=O)C=C[C@@]4(C)[C@H]3[C@H](O)C[C@]21C	none (no result: RXFP1 antag, miR-21 FLuc, gsp agonist, RXFP1 agonist, gsp antagonist)
O=C(Nc1ccc(N2CCCC2=O)cc1)c1cccc(F)c1	Luc counter 7.9µM
CCOC(=O)C1=C(CN2CCN(c3ccc(Cl)cc3)CC2)NC(=O)NC1c1ccc(OC)cc1 (stereo not drawn)	none (no result: gsp agonist, Luc counter, gsp antagonist)
CCC(CC)c1nn2c(N)c(/C=C3\C(C)=Nc4ccccc43)c(=O)nc2s1	RXFP1 antag -69 (no result: Luc counter)
CCC(CC)c1nn2c(N)c(/C=C3\C=Nc4ccccc43)c(=O)nc2s1	none (no result: Luc counter)
O=C(c1cccc(N2C(=O)C3C4C=CC(C4)C3C2=O)c1)N1CCN(c2ccc(F)cc2)CC1 (stereo not drawn)	none (no result: Luc counter)
